AlphaSeq binding of Ab-95 light chain variants to a spike HR2 peptide

Reference: Engelhart et al. 2022, doi:10.1038/s41597-022-01779-4. File: FLAb, binding data.

The target is the same throughout: PDVDLGDISGINAS, from the HR2 region of SARS-CoV-2 spike.

Parent scFv Ab-95: VH joined to VL by the linker GGGGSGGGGSGGGGS. Changes lie in the light chain CDRs alone.
VH: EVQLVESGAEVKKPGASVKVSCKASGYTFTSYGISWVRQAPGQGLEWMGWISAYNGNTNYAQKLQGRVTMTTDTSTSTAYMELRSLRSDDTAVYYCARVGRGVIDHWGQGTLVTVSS
VL: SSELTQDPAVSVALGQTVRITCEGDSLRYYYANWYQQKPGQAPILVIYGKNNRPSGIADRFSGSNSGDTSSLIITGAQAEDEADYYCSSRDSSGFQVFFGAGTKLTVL

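The parent was found by panning a naive human phage display library on the peptide. The library (AAYL52) carries one to three amino acid substitutions per variant, with no insertions or deletions. Affinity was read by AlphaSeq, a pooled yeast mating assay with surface-displayed partners. After mating in shaken culture at 30 °C for 16 h, diploids were selected and their barcode pairs sequenced. A regression on co-assayed BCL2-family reference pairs converts the normalised counts of each replicate to an apparent Kd. There are three technical replicates.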

Variants are written as CDR1, CDR2 and CDR3 of the light chain (limits as in the source). Parent: EGDSLRYYYAN, GKNNRPS, SSRDSSGFQVF.
The read-out is the apparent dissociation constant on a log10 scale (nM): the lower, the stronger.
A mean of the replicates is given; it leaves out those without a signal.
"ND" marks a missing value. The strain was present, yet no cells mated with the target were sequenced in that replicate, which points to weak or no binding.
The list is sorted by this average, lowest first, undetected variants last.
Background: pairings of library AAYL52 with three empty control strains gave a value in 28% of cases (median 3.91, 5th percentile 2.90). Values in that range, when seen in few replicates, are hard to tell from nonspecific mating.

"log10 Kd, replicates","log10 Kd (nM), mean",CDR-L1,CDR-L2,CDR-L3
0.73 0.77 0.02,0.51,EGDSLRYQYAN,GKNNRPN,SSRDESGFQVF
1.20 1.01 1.17,1.13,EGDSLRYYNAN,GKNNRPS,SSRDESGFQVE
1.53 1.41 1.05,1.33,EGDSLMYEYAN,GKNNRPL,SSRDSSGFQVF
1.50 1.63 1.09,1.41,EGYSLRYNYAN,GKNNRPS,SSRDSSGCQVF
1.59 1.97 1.44,1.67,LHDSLRYYYAN,GKNNRPS,SSRDSSKFQVF
1.97 1.87 1.81,1.88,WGDSLRYQYAN,NKNNRPS,SSRDSSGFQVF
2.23 2.13 2.13,2.17,EGDSLRYYYAN,GKNNRPS,SSRDSSGWIEF
2.38 2.56 2.03,2.33,EGDSLRYKYAN,GDNNRPS,SSRDSSMFQVF
2.51 2.21 2.49,2.41,EGDSLRYYSAN,GKTNRPS,SSRDNSGFQVF
2.63 2.18 2.45,2.42,EGDSLRTYYAN,GKNNRPS,SSRDSSDFEVF
2.66 2.71 2.29,2.55,EGDSLRYYYAN,GKNNRLS,SKRRSSGFQVF
2.27 2.99 2.46,2.57,EGDSLRYYYTN,GKNQRPS,SSRDSVGFQVF
2.34 2.41 3.07,2.61,EGDSLRPYYAN,GPNNRPS,SSRDSSGFQVQ
3.50 2.61 1.77,2.63,EGKSLRYYYAN,GKNNRPW,SSRDSSGFAVF
ND 3.13 2.89,3.01,EGDSLRYYYAN,GKNNRPW,SSRDSSGFQRM
2.82 3.15 3.12,3.03,EGDSLRYYYAN,GKGNRPS,CSTDSSGFQVF
2.99 3.35 3.06,3.13,EGDSMRYLYAN,GKNNRPS,SSRDSSGFPVF
2.99 2.83 3.81,3.21,RGDSLRYYYAN,GKVNRPS,SSRDKSGFQVF
3.25 ND ND,3.25,EGDELRYYYAN,GKNNRPS,SRRDSSGFLVF
3.72 2.81 ND,3.27,ETDSLRYYYAN,NKINRPS,SSRDSSGFQVF
2.85 3.46 3.95,3.42,EGDSKRYNYAN,GKNNRPS,SSRDSSLFQVF
3.26 2.93 4.13,3.44,EGDSLRYLTAN,GKNNRPS,SSRHSSGFQVF
ND ND 3.46,3.46,EGDSLMYYYAN,GKANRPS,SSIDSSGFQVF
3.50 ND 3.62,3.56,EGPSLRYYYAS,GKNNRPS,SSRDSSGFQLF
ND 3.80 3.51,3.66,EGDGLRYYYYN,GKNNRPS,SSYDSSGFQVF
3.23 4.34 ND,3.78,EGDSLRYYYAN,GKNNWPS,SSRWCSGFQVF
3.60 4.00 ND,3.80,EGDSLRYYIAN,GKNNRPS,SSRDDSGFQEF
ND 3.81 ND,3.81,ETDSYRYYYAN,GKSNRPS,SSRDSSGFQVF
4.19 4.11 3.49,3.93,EGDSLRYYYRN,GFCNRPS,SSRDSSGFQVF
4.57 4.37 3.02,3.99,EGDSLRYIYAN,GKFNRPS,SSRDSGGFQVF
4.29 ND 3.76,4.02,EGDSLSYYYAN,GKHNRPS,VSRDSSGFQVF
3.64 4.02 4.42,4.03,ELDSLHYYYAN,GKNNRPS,SSRDSSGFQVF
ND ND 4.15,4.15,EGDSLRYYYWN,GKNNRPS,SSRDSSGFQFF
4.77 3.54 ND,4.16,EGDSERYYYAN,GNNNRPS,SSRDSSGFQSF
3.91 4.69 ND,4.30,EGDSLRYYYAN,GKINRPS,SSRDPSGAQVF
ND ND 4.30,4.30,EGDSLRYYYAW,GKNNRQS,SSDDSSGFQVF
5.48 3.33 4.30,4.37,EGDMLRYYYAE,GKNNRPG,SSRDSSGFQVF
4.60 ND ND,4.60,EGRKLRYYGAN,GKNNRPS,SSRDSSGFQVF
ND 5.06 ND,5.06,EGRDLRYYYKN,GKNNRPS,SSRDSSGFQVF
5.88 6.26 ND,6.07,EGDSLRYYYAE,GVNNRPS,SSRDSSGFLVF
ND ND ND,ND,EGDSLRYYYAN,PKNNRPS,SSCDSSGHQVF
ND ND ND,ND,EGDSLRYYYAE,GKNLRPS,SSHDSSGFQVF
ND ND ND,ND,EGDSLRYYYYN,GKNNRPS,SSRDSSGVQVY
ND ND ND,ND,EGDIKRYYYAN,GKNNRPS,SSRDSSGFQVM
ND ND ND,ND,EGDSERYYYAN,GMANRPS,SSRDSSGFQVF
ND ND ND,ND,EADSLRYYYAN,GKNNRPS,SSRASSGIQVF
ND ND ND,ND,EGDSLRYYYAN,RKNVRPS,SSRDSSKFQVF
ND ND ND,ND,EGDSLQYYYAC,GKNNRPY,SSRDSSGFQVF

Again, the first 3 entries without any signal:

{"CDR-L1": "EGDSLRYYYAN", "CDR-L2": "PKNNRPS", "CDR-L3": "SSCDSSGHQVF", "log10 Kd, replicates": "ND ND ND", "log10 Kd (nM), mean": "ND"}
{"CDR-L1": "EGDSLRYYYAE", "CDR-L2": "GKNLRPS", "CDR-L3": "SSHDSSGFQVF", "log10 Kd, replicates": "ND ND ND", "log10 Kd (nM), mean": "ND"}
{"CDR-L1": "EGDSLRYYYYN", "CDR-L2": "GKNNRPS", "CDR-L3": "SSRDSSGVQVY", "log10 Kd, replicates": "ND ND ND", "log10 Kd (nM), mean": "ND"}